# Literature values as cited in patent publication US20110306579A1, “METHODS OF NEUROPROTECTION USING NEUROPROTECTIVE STEROIDS AND A VITAMIN D” (EMORY UNIVERSITY, priority 2009, published 2011).
# Chains of the proteins cited; added tags and fusions are not shown. Lines headed by an entry give the natural chain unless they say otherwise; changes in a name come on top.
# UniProt P06401: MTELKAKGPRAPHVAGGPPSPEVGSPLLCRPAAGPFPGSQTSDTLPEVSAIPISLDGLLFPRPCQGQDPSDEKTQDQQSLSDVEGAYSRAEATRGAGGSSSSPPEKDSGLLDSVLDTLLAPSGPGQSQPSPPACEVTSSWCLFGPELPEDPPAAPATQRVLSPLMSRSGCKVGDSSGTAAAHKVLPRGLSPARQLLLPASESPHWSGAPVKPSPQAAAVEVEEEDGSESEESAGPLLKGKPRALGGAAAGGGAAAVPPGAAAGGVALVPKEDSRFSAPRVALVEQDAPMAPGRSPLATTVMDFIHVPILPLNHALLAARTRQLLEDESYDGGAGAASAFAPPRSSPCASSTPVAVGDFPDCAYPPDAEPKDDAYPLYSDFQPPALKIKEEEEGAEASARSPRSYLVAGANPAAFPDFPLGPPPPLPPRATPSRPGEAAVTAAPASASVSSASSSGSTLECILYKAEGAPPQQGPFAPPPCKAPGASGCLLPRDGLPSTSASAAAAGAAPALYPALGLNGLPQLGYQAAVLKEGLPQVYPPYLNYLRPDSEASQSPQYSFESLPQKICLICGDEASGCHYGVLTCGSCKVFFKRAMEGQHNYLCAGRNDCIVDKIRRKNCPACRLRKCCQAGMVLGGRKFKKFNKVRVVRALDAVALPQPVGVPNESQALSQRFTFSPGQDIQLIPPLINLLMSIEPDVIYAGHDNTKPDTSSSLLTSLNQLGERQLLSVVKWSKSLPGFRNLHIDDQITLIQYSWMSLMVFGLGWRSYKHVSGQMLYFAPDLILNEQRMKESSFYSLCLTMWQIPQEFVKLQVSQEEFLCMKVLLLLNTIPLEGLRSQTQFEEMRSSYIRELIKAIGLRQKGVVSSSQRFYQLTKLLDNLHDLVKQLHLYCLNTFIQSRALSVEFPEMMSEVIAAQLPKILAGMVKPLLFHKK
# Assays:
# [1] = molecular target: T1, classical progesterone receptor (PR) (Homo sapiens, UniProt P06401); details: cited from earlier work
# [2] = molecular target: T1, classical progesterone receptor (PR); details: cited from earlier work; remark: listed apart in the source
smiles,measurement,setting,value
CC(=O)[C@@H]1CC[C@@H]2[C@H]3CCC4=CC(=O)CC[C@@]4(C)[C@@H]3CC[C@]21C [ent-PROG],activation of PR-mediated gene transcription,[1],does not activate
same,affinity to the classical progesterone receptor (PR),[2],moderate affinity
